Measured values: PubChem BioAssay AID2717 (Broad Institute, 2010)
The list shows a part of the results, in another mix than the full data. Some structures show a salt or complex split into parts, the way the source records it. The source made the active and inactive calls. Cut-off read from the data, not from the text of the source: active = inhibition above about 75%; inconclusive = no clear call, values can overlap the other calls; inactive = below that; tested in HMLE shEcad cells.

Test: growth suppression of cancer stem-like cells – cell-based, luminescence, primary screen (AID 2717)
Conditions: cancer stem cell-like cells viability, at 7.5 µM, active compounds read high

SMILES	inhibition
COc1ccc(OP(C)(=O)Nc2ccc(SC(F)(F)F)cc2)cc1 (configuration not stated)	inactive: 3.16%
CCOC(=O)c1ccc(NP(C)(=O)Oc2ccc(F)cc2)cc1 (configuration not stated)	inactive: 6.19%
O=C(OC1CN2CCC1CC2)c1ccccc1 (configuration not stated)	inactive: -12.3%
CCN(CC)CCCOC(=O)C(O)(c1ccccc1)C1CCCCC1 (configuration not stated)	inactive: 3.28%
CCC(=O)N1C2C3N(C(=O)CC)C1C1N(C(=O)CC)C(C(N1C(=O)CC)N3C(=O)CC)N2C(=O)CC	inactive: -7.84%
COC(=O)c1cc2c(s1)N=C(c1ccccc1)N(C)P2(=O)N1CCOCC1 (configuration not stated)	inactive: -2.77%
CC(=O)NC(SC(=S)N(CC(C)C)CC(C)C)C(Cl)(Cl)Cl (configuration not stated)	inactive: 23.7%
Cc1ccc(OP(=O)(Nc2ccccn2)Oc2ccc(C)cc2)cc1	inactive: 0.896%
CC(NC(=O)COC(=O)C(O)(c1ccccc1)c1ccccc1)c1ccccc1 (configuration not stated)	inactive: -0.416%
Cc1ccccc1OP(=O)(Nc1ccccn1)Oc1ccccc1C	inactive: 1.57%
CCCCCOc1ccc(NP(C)(=O)Oc2ccc(Cl)cc2Cl)cc1 (configuration not stated)	inactive: 37.3%
O=[N+]([O-])c1cc([N+](=O)[O-])c(OC2CCCCC2O)c([N+](=O)[O-])c1 (configuration not stated)	inactive: -16.4%
CN(C)C(=O)Oc1noc2ccccc12	inactive: -5.73%
CP(=O)(Nc1ccccc1)Oc1ccc(F)cc1 (configuration not stated)	inactive: -3.09%
O=P1(Nc2nc3ccc(Cl)cc3s2)COc2ccccc2O1 (configuration not stated)	inactive: 8.99%
CCOc1ccc(C2=NCC(CBr)S2)cc1 (configuration not stated)	inactive: -3.25%
CC(C)(C)C(=O)NC(Sc1ccccc1)C(Cl)(Cl)Cl (configuration not stated)	inactive: 5.63%
CP(=O)(Nc1ccccc1F)Oc1ccccc1 (configuration not stated)	inactive: 1.09%
C[C@H]1OP(=O)(Oc2ccccc2)C[C@@H]2O[C@@H]21 (some centres not stated)	inactive: 3.47%

SMILES	inhibition
C[C@@H]1C=CCP(=O)(Oc2ccccc2)O1 (some centres not stated)	inactive: 3.67%
CC(=O)c1ccc(N2CC2c2ccncc2)cc1 (configuration not stated)	inactive: -9.07%
O=C(OC1CN2CCC1CC2)c1ccc([N+](=O)[O-])cc1 (configuration not stated)	inactive: -2.2%
CC(=O)Nc1ccc([As](=O)(O)O)c(O)c1	inactive: -11.5%
COc1ccc2c(c1O)-c1c(O)c(OC)cc3c1[C@H](C2)[N+](C)(C)CC3.O=[N+]([O-])c1cc([N+](=O)[O-])c([O-])c([N+](=O)[O-])c1[O-]	inactive: -16.8%
CC(C)C(=O)NC(Sc1ccccc1)C(Cl)(Cl)Cl (configuration not stated)	inactive: -12.2%
O=P(Nc1nccs1)(c1ccccc1)c1ccccc1	inactive: 5.07%
CP(=O)(Nc1ccc(SC(F)(F)F)cc1)Oc1ccc(F)cc1 (configuration not stated)	inactive: 2.14%
c1nnnn1CCn1cnnn1	inactive: 2.06%
CCOP(C)(=S)SCC(=O)NC(C)(CC)C(=O)O (configuration not stated)	inactive: 10.3%
CP(=O)(Nc1ccc2c(c1)OCCO2)Oc1ccccc1 (configuration not stated)	inactive: -2.21%
Cc1ccccc1NP(C)(=O)Nc1ccccc1C	inactive: -11.1%
O=P(Nc1ccccn1)(c1ccc(Br)cc1)c1ccc(Br)cc1	inactive: -3.53%
CN(C)C1(CNC(=O)c2ccc(Cl)c(S(N)(=O)=O)c2)CCCCC1	inactive: -1.17%
COc1ccc(OP(C)(=O)Nc2cccc(Br)c2)cc1 (configuration not stated)	inactive: -7.89%
COc1ccc(NP(C)(=O)Oc2ccccc2OC)cc1 (configuration not stated)	inactive: -13.2%
CN(C)CCOC(=O)C(O)(c1ccccc1)C1CCCCC1 (configuration not stated)	inactive: 3.13%
O=P(Nc1nc2ccccc2s1)(c1ccccc1)c1ccccc1	inactive: 6.02%
C[C@H]1OP(=O)(Oc2ccccc2)[C@H](O)[C@H](O)[C@H]1N=[N+]=[N-] (some centres not stated)	inactive: -8.94%

SMILES	inhibition
O=[As](O)(c1ccccc1)c1ccc(O)cc1	inactive: -7.17%
O=[N+]([O-])c1cc([N+](=O)[O-])c(NCC2CCS(=O)(=O)C2)c([N+](=O)[O-])c1 (configuration not stated)	inactive: 24.8%
CC(=O)NC(SC(=S)N(C)C)C(Cl)(Cl)Cl (configuration not stated)	inactive: -11.2%
O=[N+]([O-])c1ccc(OP2(=O)COCCO2)cc1 (configuration not stated)	inactive: -4.01%
O=[N+]([O-])c1ncn(CCn2cnc([N+](=O)[O-])n2)n1	inactive: 0.771%
O=C(OC1CN2CCC1CC2)c1cccc(Cl)c1 (configuration not stated)	inactive: -13%
C(Cc1nn[nH]n1)Cc1nn[nH]n1	inactive: 6.73%
Nc1ccc([As](=O)(O)c2ccc([N+](=O)[O-])cc2)cc1	inactive: -19.2%
Cc1nn(-c2ccccc2)c2c1P(=O)(N1CCOCC1)N(C)C(c1ccccc1)=N2 (configuration not stated)	inactive: -0.852%
CC1CCC(C(C)C)C(OP(=O)(Nc2ccccn2)c2ccccc2)C1 (configuration not stated)	inactive: 3.54%
Cc1ccc(C(=O)OC2CN3CCC2CC3)cc1 (configuration not stated)	inactive: -7.36%
COc1cc(C2NCCC3(OCCO3)C2(C)C)cc(OC)c1OC.O=[N+]([O-])c1cc([N+](=O)[O-])c(O)c([N+](=O)[O-])c1 (configuration not stated)	inactive: -5.16%
CN(C)C1(CNC(=O)c2ccc(S(C)(=O)=O)cc2)CCCCC1	inactive: -15%
CC1=C2N=C(C=C3N=C(C(C)=C4[N-][C@@](C)([C@@H]5N=C1[C@](C)(CCC(=O)NC[C@@H](C)OP(=O)([O-])O[C@H]1[C@@H](O)[C@@H](n6cnc7cc(C)c(C)cc76)O[C@@H]1CO)[C@H]5CC(N)=O)[C@@](C)(CC(N)=O)[C@@H]4CCC(N)=O)[C@@](C)(CC(N)=O)[C@@H]3CCC(N)=O)C(C)(C)[C@@H]2CCC(N)=O.[C-]#N.[Co+3]	inactive: 6.05%
O=[N+]([O-])c1cc([N+](=O)[O-])c(Nc2nnnn2CCO)c([N+](=O)[O-])c1	inactive: -10.9%
CCOC(=O)C(CC)C1=NC(C)(C)Cc2ccccc21.O=[N+]([O-])c1cc([N+](=O)[O-])c(O)c([N+](=O)[O-])c1 (configuration not stated)	inactive: -15.2%
O=C(/C=C/c1ccccc1)OC1CN2CCC1CC2 (configuration not stated)	inactive: 41.5%
CN1CCCCC1COC(=O)C1(O)c2ccccc2CCc2ccccc21 (configuration not stated)	inactive: 3.27%
O=P1(Nc2ncccn2)COc2ccccc2OC1	inactive: -10.8%
